Molecular target: T1, Retinoic acid receptor RXR-alpha (Homo sapiens) (UniProt P19793)
T1 sequence (whole entry): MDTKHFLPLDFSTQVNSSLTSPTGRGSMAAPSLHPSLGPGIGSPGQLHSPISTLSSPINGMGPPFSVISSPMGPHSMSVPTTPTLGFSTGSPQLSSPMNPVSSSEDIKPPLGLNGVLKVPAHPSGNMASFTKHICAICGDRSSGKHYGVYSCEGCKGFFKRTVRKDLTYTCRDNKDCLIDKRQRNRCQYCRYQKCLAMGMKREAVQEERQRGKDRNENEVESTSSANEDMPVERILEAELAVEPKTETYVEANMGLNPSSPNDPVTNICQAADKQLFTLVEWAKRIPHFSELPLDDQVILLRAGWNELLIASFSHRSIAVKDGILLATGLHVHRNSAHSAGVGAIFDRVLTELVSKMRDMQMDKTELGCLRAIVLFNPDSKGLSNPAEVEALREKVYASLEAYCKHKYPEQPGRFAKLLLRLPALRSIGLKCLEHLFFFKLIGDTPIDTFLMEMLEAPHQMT
Details: filed as agonist

Tm [°C]	Compound
66.5	C/C=C/C=C/C(O)=C1/C(=O)[C@@]2(C)[C@H]3/C(=C(/O)CC/C=C/C)C(=O)[C@@]4(C)[C@@H]1[C@]1(C)O[C@@]4(O)[C@@]3(C)O[C@@]12O
66.7	C/C=C/C=C/C(O)=C1/C(=O)[C@@]2(C)[C@H]3\C(=C(O)/C=C/C=C/C)C(=O)[C@@]4(C)[C@@H]1[C@]1(C)O[C@@]4(O)[C@@]3(C)O[C@@]12O

Compound	Tm [°C]
Cc1cc2c(cc1-c1cc(/C=C/C(=O)O)ccc1O)C(C)(C)CCC2(C)C	73.8
